Biological target: T1, A. suum QFR (complex II) (Ascaris suum, UniProt O44074+P92506+P92507)
T1 construct: from tissue; host or cells: adult Ascaris suum muscle, mitochondrial fraction
Test: SQR activity assay of A. suum complex II (QFR) in mitochondrial fraction, UQ2 consumption at 278 nm
Type: biochemical
Settings: A. suum QFR versus porcine SQR

By UniProt entry, the sequences of proteins in these tests, tags left out. Residues count along the entry.
UniProt O44074, 22-282: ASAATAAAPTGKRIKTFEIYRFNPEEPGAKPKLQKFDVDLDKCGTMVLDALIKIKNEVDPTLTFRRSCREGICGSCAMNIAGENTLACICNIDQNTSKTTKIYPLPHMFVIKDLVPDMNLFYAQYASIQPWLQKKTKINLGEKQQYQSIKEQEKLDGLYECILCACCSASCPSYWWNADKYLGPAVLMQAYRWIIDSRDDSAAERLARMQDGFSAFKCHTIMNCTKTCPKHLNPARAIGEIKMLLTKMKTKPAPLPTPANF
UniProt P92506, 32-188: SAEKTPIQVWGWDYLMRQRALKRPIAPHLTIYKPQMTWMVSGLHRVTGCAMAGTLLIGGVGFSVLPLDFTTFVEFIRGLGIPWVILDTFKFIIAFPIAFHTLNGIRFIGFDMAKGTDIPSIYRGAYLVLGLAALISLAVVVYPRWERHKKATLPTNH
UniProt P92507, 26-156: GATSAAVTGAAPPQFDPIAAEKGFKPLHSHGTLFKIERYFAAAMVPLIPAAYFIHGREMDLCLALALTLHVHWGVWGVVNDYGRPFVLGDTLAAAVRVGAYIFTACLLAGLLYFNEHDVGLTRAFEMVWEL

SMILES: CC(C)Oc1cccc(NC(=O)c2ccccc2C(F)(F)F)c1 [flutolanil, N-[3-(isopropyloxy)phenyl]-2-(trifluoromethyl)benzamide, reference compound]
- selectivity index (IC50 porcine SQR / IC50 A. suum QFR): approximately 790 folds
